Results as given in ChEMBL document CHEMBL1143371, “2-Aminoimidazoles inhibitors of TGF-beta receptor 1” (Bioorg Med Chem Lett, 2009).

Target: T1, TGF-beta receptor type-1 (Homo sapiens, UniProt P36897)
T1 sequence (P36897 whole entry): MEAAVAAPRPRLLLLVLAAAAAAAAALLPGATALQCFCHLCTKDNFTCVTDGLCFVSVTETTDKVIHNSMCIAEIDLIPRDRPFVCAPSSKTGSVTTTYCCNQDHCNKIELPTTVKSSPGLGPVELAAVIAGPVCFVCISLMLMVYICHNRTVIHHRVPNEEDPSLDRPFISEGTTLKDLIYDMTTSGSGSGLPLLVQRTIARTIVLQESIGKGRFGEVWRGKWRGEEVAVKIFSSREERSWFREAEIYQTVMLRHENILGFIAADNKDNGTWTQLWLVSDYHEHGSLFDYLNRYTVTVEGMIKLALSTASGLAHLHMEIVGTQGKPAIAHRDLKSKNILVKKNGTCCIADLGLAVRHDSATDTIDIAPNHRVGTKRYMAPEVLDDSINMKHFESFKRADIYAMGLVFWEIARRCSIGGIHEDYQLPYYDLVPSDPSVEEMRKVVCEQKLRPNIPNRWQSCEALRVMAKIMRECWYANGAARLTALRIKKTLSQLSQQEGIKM
Assay: Binding affinity to human TGFBR1

Question: `CC(=O)Nc1nc(-c2ccc(F)c(C)n2)c(-c2ccc3nccnc3c2)[nH]1` was tested. Which Ki did it give?
Answer: Its Ki is 7.1 nM.
